Structures are written as SMILES.

The term bioavailability denotes dose-corrected exposure relative to a reference, in per cent. A high value points to much systemic uptake.

This data set in a line: Oral bioavailability in mouse at 10 mg/kg measured upto 24 hrs by LC-MS analysis. Type of data set: ADME, organism-based. The following applies: in vivo.

Molecule `O=C1CCN(c2cc(C(=O)N3CCC(CC4CCN(c5ccc(-c6cnc7[nH]cc(-c8cnn(CC(F)(F)F)c8)c7n6)cn5)CC4)CC3)ccc2Cl)C(=O)N1` had a bioavailability of 20.7%.

For the origin of these results see ChEMBL document CHEMBL6092203, “Discovery of Novel PROTAC-Based HPK1 Degraders with High Potency and Selectivity for Cancer Immunotherapy” (J Med Chem, 2024).
